The results in this text go back to PubChem BioAssay AID624126 (The Scripps Research Institute Molecular Screening Center, 2012).

Sequences of proteins named here, by UniProt entry; tags and fusion partners are left off.
UniProt P08173, whole entry: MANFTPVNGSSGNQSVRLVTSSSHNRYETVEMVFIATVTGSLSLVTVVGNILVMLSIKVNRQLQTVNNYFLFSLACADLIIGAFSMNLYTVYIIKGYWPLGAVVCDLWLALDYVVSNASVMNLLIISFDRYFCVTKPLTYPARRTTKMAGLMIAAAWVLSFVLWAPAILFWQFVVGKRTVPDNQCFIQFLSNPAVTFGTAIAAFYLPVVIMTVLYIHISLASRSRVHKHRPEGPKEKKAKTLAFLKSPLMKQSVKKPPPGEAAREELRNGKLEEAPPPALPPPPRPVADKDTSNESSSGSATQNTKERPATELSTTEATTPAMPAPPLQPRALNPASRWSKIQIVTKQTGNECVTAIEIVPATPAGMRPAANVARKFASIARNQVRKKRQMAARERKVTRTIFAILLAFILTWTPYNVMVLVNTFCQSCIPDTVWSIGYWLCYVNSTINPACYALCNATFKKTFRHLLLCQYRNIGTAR

SMILES strings stand for the structures. The entries are a selection whose mix differs from that of the whole data set. Activity calls are given as the source filed them.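 The calls were made as follows: active = activation above its plate's cutoff, the mean activation of sample wells plus 3 SD; inactive = the rest.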

The target of the experiment is Muscarinic acetylcholine receptor M4 (Homo sapiens) (UniProt P08173). As to the kind of experiment: human M4 muscarinic receptor positive allosteric modulators, primary screen, CHO-K1 cells, Fluo-8 calcium fluorescence (AID 624126). The settings on record: CHO-K1 hM4/Gqi5, Fluo-8 calcium fluorescence, ACh EC20; at 3 µM; active compounds read high; 0% = ACh EC20, 100% = maximal ACh.
Consider `CC(C)(C)n1nnnc1C(c1ccnc2ccccc12)N1CCC(n2c(=O)[nH]c3ccccc32)CC1` (stereo not drawn), for which the activation was inactive: 3.63%.

As to `COc1ccc(C(c2nnnn2C2CCCCC2)N2CCC(n3c(=O)[nH]c4ccccc43)CC2)cc1` (stereo not drawn), the activation was inactive: 0%.

Consider `CCN1CCC(Nc2cccc(F)c2)CC1`, for which the activation was inactive: -3.68%.

As to `Cc1ccccc1NC1(C#N)CCN(Cc2ccccc2)CC1`, the activation is inactive: -3.13%.

With `Cn1c(=O)[nH]cc(N(CCCl)CCCl)c1=O`, the activation is inactive: -1.3%.

With `CN(C)c1ccc(C(=O)NCC2(N3CCCCC3)CCCCC2)cc1`, the activation was inactive: 4.21%.

Turning to `O=C(NCC1(N2CCCCC2)CCCCC1)c1ccco1`, the activation is inactive: 1.11%.

Consider `O=c1[nH]c2ccccc2n1C1CCN(C(c2ccnc3ccccc23)c2nnnn2C2CCCCC2)CC1` (stereo not drawn), for which the activation was inactive: -8.88%.

For `COc1cc(OC)cc(C(=O)NCC2(N3CCCCC3)CCCCC2)c1`, the activation is inactive: -5.74%.

On to `CCC(c1nnnn1C1CCCCC1)N1CCC(n2c(=O)[nH]c3ccccc32)CC1` (stereo not drawn), for which the activation was inactive: 9.63%.

Consider `CC(=O)N(c1ccccc1)C1CCNCC1`, for which the activation was inactive: 2.54%.

As to `COc1cccc(C(c2nnnn2C2CCCCC2)N2CCC(n3c(=O)[nH]c4ccccc43)CC2)c1OC` (stereo not drawn), the activation was inactive: -9.76%.

As for `Cc1ccc(NC2(C#N)CCN(Cc3ccccc3)CC2)cc1`, the activation was inactive: -2.19%.

`Fc1ccccc1NC1CCN(Cc2ccccc2)CC1`: the activation was inactive: -3.45%.

In the case of `Cc1ccc(C(=O)NCC2(N3CCCCC3)CCCCC2)o1`, the activation was inactive: -4.41%.

Regarding `CCC(CO)(C(=O)OC1CN2CCC1CC2)c1ccccc1` (stereo not drawn), the activation was inactive: -22.8%.

`COc1cc(OC)cc(C(=O)NCC2(N3CCOCC3)CCCCC2)c1`: the activation is inactive: -4.35%.

Take `COc1cccc(C(c2nnnn2C2CCCC2)N2CCC(n3c(=O)[nH]c4ccccc43)CC2)c1OC` (stereo not drawn): the activation is inactive: -11.9%.

Take `COc1cccc(C(=O)N(c2cc(C)cc(C)c2)C2CCN(C(=O)OC(C)(C)C)CC2)c1`: the activation is inactive: -10.4%.

As to `CN1CCC(Nc2ccc(Cl)cc2)CC1`, the activation was inactive: -6.4%.

As for `CN1CCC(Nc2ccc(F)c(Cl)c2)CC1`, the activation was inactive: -8.85%.

`CCOc1ncccc1C(=O)NCC1(N2CCOCC2)CCCCC1`: the activation was inactive: -2.67%.

As to `CCCOc1ccc(C(=O)NCC2(N(C)C)CCCCC2)cc1`, the activation is inactive: 1%.

Turning to `O=c1[nH]c2ccccc2n1C1CCN(C(c2cc3ccccc3o2)c2nnnn2C2CCCC2)CC1` (stereo not drawn), the activation was inactive: -8.82%.

Take `O=C(O)C1(Nc2ccccc2)CCN(Cc2ccccc2)CC1`: the activation was inactive: 2.2%.

As for `NN(c1ccccc1)C1CCN(CCc2ccccc2)CC1`, the activation was inactive: -6.83%.

`CC(C)(C)OC(=O)N1CCC(Nc2ccccc2)CC1`: the activation was inactive: -5.5%.

In the case of `N/C(=N\O)c1c(N)no[n+]1[O-]`, the activation was inactive: 5.08%.

With `COc1cccc(C(c2nnnn2C(C)(C)C)N2CCC(n3c(=O)[nH]c4ccccc43)CC2)c1OC` (stereo not drawn), the activation is inactive: -4.76%.

On to `CCOC(=O)N1CCC(Nc2ccc(C)cc2)CC1`, for which the activation was inactive: 2.59%.

Consider `CCCCn1nnnc1C(c1cccc(OC)c1OC)N1CCC(n2c(=O)[nH]c3ccccc32)CC1` (stereo not drawn), for which the activation is inactive: -15.1%.

Regarding `O=c1[nH]c2ccccc2n1C1CCN(C(c2cccs2)c2nnnn2C2CCCC2)CC1` (stereo not drawn), the activation was inactive: -13.6%.

Take `O=C(OC1CN2CCC1CC2)C1c2ccccc2C=Cc2ccccc21` (stereo not drawn): the activation was inactive: -16.7%.

Consider `O=C(NCC1(N2CCOCC2)CCCCC1)c1cc(Br)ccc1Cl`, for which the activation is inactive: 12.9%.

Consider `COc1cc(C(=O)NCC2(N3CCOCC3)CCCCC2)cc(OC)c1C`, for which the activation was inactive: 7.7%.

On to `CCCCn1nnnc1C(c1ccccc1)N1CCC(n2c(=O)[nH]c3ccccc32)CC1` (stereo not drawn), for which the activation is inactive: -14.5%.

For the compound `O=c1[nH]c2ccccc2n1C1CCN(C(c2ccnc3ccccc23)c2nnnn2C2CCCC2)CC1` (stereo not drawn), the activation was inactive: -11.1%.

With `COc1ccc(C(=O)NCC2(N3CCOCC3)CCCCC2)cc1OC`, the activation is inactive: 9.29%.

With `O=c1[nH]c2ccccc2n1C1CCN(C(c2cccs2)c2nnnn2C2CCCCC2)CC1` (stereo not drawn), the activation was inactive: -15.3%.

`O=c1[nH]c2ccccc2n1C1CCN(C(c2ccccc2)c2nnnn2C2CCCC2)CC1` (stereo not drawn): the activation was inactive: -2.51%.

Consider `CCCN1CCC(Nc2cc(OC)cc(OC)c2)CC1`, for which the activation was inactive: -1.87%.

`Cc1cc(N(CCCl)CCCl)ccc1C=O`: the activation is inactive: 0.14%.

As for `c1ccc(CN2CCC(Nc3ccccc3)CC2)cc1`, the activation is inactive: -1.44%.

On to `CN(C)C1(CNC(=O)c2cccc(C#N)c2)CCCCC1`, for which the activation was inactive: 3.31%.

In the case of `CC(C)(C)n1nnnc1C(c1cccc2ccccc12)N1CCC(n2c(=O)[nH]c3ccccc32)CC1` (stereo not drawn), the activation was inactive: -4.58%.

Consider `CC(C)(C)OC(=O)N1CCC(N(C(=O)c2ccccc2)c2ccc(Cl)cc2)CC1`, for which the activation is inactive: 2.16%.

With `N#Cc1ccc(C(=O)NCC2(N3CCCCC3)CCCCC2)cc1`, the activation is inactive: -1.23%.

As to `O=C(NCC1(N2CCCCC2)CCCCC1)c1cccc(C(F)(F)F)c1`, the activation was inactive: -4.19%.

With `CCCCn1nnnc1C(c1cccc2ccccc12)N1CCC(n2c(=O)[nH]c3ccccc32)CC1` (stereo not drawn), the activation is inactive: -6.08%.

As for `CN1CCN(CCOC(=O)C(O)(c2ccccc2)c2ccccc2)CC1`, the activation was inactive: -35.9%.

For the compound `COc1ccc(NC2CCN(C(=O)OC(C)(C)C)CC2)cc1`, the activation was inactive: -5.42%.

On to `CC(C)c1ccc(C(=O)NCC2(N3CCOCC3)CCCCC2)cc1`, for which the activation is inactive: 2.37%.

Take `COc1cc(C(=O)NCC2(N3CCCCC3)CCCCC2)ccc1OC(F)F`: the activation was inactive: -11.5%.

`O=C(NCC1(N2CCOCC2)CCCCC1)c1cc(=O)[nH]c2ccccc12`: the activation is inactive: 7.45%.

With `O=C(NCC1(N2CCCCC2)CCCCC1)c1ccc(OC(F)F)cc1`, the activation was inactive: -9.95%.

Turning to `CC(C)(C)n1nnnc1C(c1ccccc1OC(F)(F)F)N1CCC(n2c(=O)[nH]c3ccccc32)CC1` (stereo not drawn), the activation was inactive: 2.72%.

As for `O=C(NCC1(N2CCCCC2)CCCCC1)c1cccc([N+](=O)[O-])c1`, the activation is inactive: -4.33%.

Consider `CSc1ccc(C(=O)NCC2(N3CCOCC3)CCCCC2)cc1`, for which the activation was inactive: -1.49%.

Consider `N#CC1(Nc2ccccc2)CCN(CCc2ccccc2)CC1`, for which the activation was inactive: 15.8%.

For the compound `O=c1[nH]c2ccccc2n1C1CCN(C(c2ccccc2OC(F)(F)F)c2nnnn2C2CCCC2)CC1` (stereo not drawn), the activation was inactive: 0.95%.

In the case of `CCN1CCC(Nc2ccc(Cl)cc2)CC1`, the activation is inactive: -1.99%.

Regarding `O=C(NCC1(N2CCCCC2)CCCCC1)c1cncc(Br)c1`, the activation was inactive: -3.75%.

As to `CN1CCC(Nc2cccc(F)c2)CC1`, the activation was inactive: -11.2%.

For the compound `CCCOc1ccc(C(=O)NCC2(N(C)C)CCCCC2)cc1OC`, the activation is inactive: 4.39%.

Take `Cc1ccc(C(=O)NCC2(N(C)C)CCCCC2)o1`: the activation is inactive: 8.01%.

`COc1ccc(C(c2nnnn2C2CCCC2)N2CCC(n3c(=O)[nH]c4ccccc43)CC2)cc1` (stereo not drawn): the activation was inactive: -7.36%.

Turning to `CN(C)c1cccc(C(=O)NCC2(N3CCCCC3)CCCCC2)c1`, the activation was inactive: -2.56%.

As for `COc1ccc(CN(CCCl)CCCl)cc1Cl`, the activation is inactive: 10.2%.

With `CCCCn1nnnc1C(c1ccccc1OC(F)(F)F)N1CCC(n2c(=O)[nH]c3ccccc32)CC1` (stereo not drawn), the activation is inactive: 7.4%.

Regarding `CC(C)c1ccc(NC2CCN(C(=O)OC(C)(C)C)CC2)cc1`, the activation was inactive: 8.8%.

Consider `CCCCn1nnnc1C(c1ccnc2ccccc12)N1CCC(n2c(=O)[nH]c3ccccc32)CC1` (stereo not drawn), for which the activation is inactive: -9.96%.

Take `CCC(c1nnnn1C(C)(C)C)N1CCC(n2c(=O)[nH]c3ccccc32)CC1` (stereo not drawn): the activation is inactive: 3.14%.

For the compound `O=C(NCC1(N2CCOCC2)CCCCC1)c1cc(F)c(F)cc1Cl`, the activation was inactive: 3.74%.

Consider `COc1cc(OC)c(C(=O)NCC2(N(C)C)CCCCC2)cc1OC`, for which the activation is inactive: -2.39%.

`O=C(NCC1(N2CCOCC2)CCCCC1)c1cc2ccccc2o1`: the activation was inactive: 12.6%.

Take `Cc1cc(C)cc(N(C(=O)c2ccccc2)C2CCN(C(=O)OC(C)(C)C)CC2)c1`: the activation is inactive: -2.77%.

In the case of `O=c1[nH]c2ccccc2n1C1CCN(C(c2ccccc2OC(F)(F)F)c2nnnn2C2CCCCC2)CC1` (stereo not drawn), the activation was inactive: 0.58%.

As for `O=C(NCC1(N2CCCCC2)CCCCC1)c1ccc(Cl)nc1`, the activation is inactive: -0.1%.

Regarding `CCCCn1nnnc1C(c1ccc(OC)cc1)N1CCC(n2c(=O)[nH]c3ccccc32)CC1` (stereo not drawn), the activation was inactive: -7.41%.

As to `CCOC(=O)N1CCC(Nc2ccc(OC)cc2)CC1`, the activation is inactive: 2.1%.

For `COc1ccc(Cl)cc1C(=O)NCC1(N2CCOCC2)CCCCC1`, the activation is inactive: -0.02%.

Turning to `O=C(OC1CN2CCC1CC2)C1c2ccccc2Oc2ccccc21` (stereo not drawn), the activation is inactive: -34.7%.

In the case of `O=c1[nH]c2ccccc2n1C1CCN(C(c2cc3ccccc3o2)c2nnnn2C2CCCCC2)CC1` (stereo not drawn), the activation was inactive: -3.22%.

For the compound `O=C(NCC1(N2CCCCC2)CCCCC1)c1ccc(Cl)s1`, the activation is inactive: 4.8%.

Consider `N#CC1(Nc2ccccc2)CCN(Cc2ccccc2)CC1`, for which the activation was inactive: 3.02%.

With `CCCCn1nnnc1C(c1cccs1)N1CCC(n2c(=O)[nH]c3ccccc32)CC1` (stereo not drawn), the activation was inactive: -10.1%.

As for `CCCCn1nnnc1C(CC)N1CCC(n2c(=O)[nH]c3ccccc32)CC1` (stereo not drawn), the activation is inactive: -6.9%.

For the compound `O=C(NCC1(N2CCCCC2)CCCCC1)c1cccs1`, the activation is inactive: -3.42%.

On to `O=C(NCC1(N2CCCCC2)CCCCC1)c1ccc(=O)[nH]c1`, for which the activation was inactive: -0.24%.

As for `CCC(c1nnnn1C1CCCC1)N1CCC(n2c(=O)[nH]c3ccccc32)CC1` (stereo not drawn), the activation was inactive: -6.94%.

As to `COc1ccc(C(=O)NCC2(N3CCCCC3)CCCCC2)c(OC)c1OC`, the activation is inactive: 7.04%.

Turning to `CC(C)(C)OC(=O)N1CCC(N(C(=O)c2ccccc2)c2ccc(F)cc2)CC1`, the activation is inactive: 3.59%.

On to `COc1ccc(C(=O)NCC2(N3CCCCC3)CCCCC2)cc1`, for which the activation is inactive: -3.75%.

For the compound `Cc1cccc(NC2(C#N)CCN(Cc3ccccc3)CC2)c1`, the activation is inactive: -0.29%.

On to `CSc1ccccc1C(=O)NCC1(N2CCCCC2)CCCCC1`, for which the activation is inactive: 4.15%.

Consider `O=c1[nH]c2ccccc2n1C1CCN(C(c2ccccc2)c2nnnn2C2CCCCC2)CC1` (stereo not drawn), for which the activation is inactive: -6.9%.

Regarding `O=c1[nH]c2ccccc2n1C1CCN(C(c2cccc3ccccc23)c2nnnn2C2CCCC2)CC1` (stereo not drawn), the activation is inactive: -0.13%.

As to `COc1cc(C(=O)NCC2(N(C)C)CCCCC2)ccc1OC(F)F`, the activation is inactive: 2.82%.

In the case of `CCOC(=O)N1CCC(Nc2cccc(C)c2)CC1`, the activation was inactive: 0.14%.

With `CCOc1ccc(C)cc1CN(CCCl)CCCl`, the activation was inactive: -41.3%.

As for `O=C1CCN(Cc2ccccc2)CC1`, the activation is inactive: 0.37%.

As to `CC(C)(C)n1nnnc1C(c1ccccc1)N1CCC(n2c(=O)[nH]c3ccccc32)CC1` (stereo not drawn), the activation was inactive: 3.01%.

Regarding `COc1ccc(NC2CCN(CCc3ccccc3)CC2)c(OC)c1`, the activation was inactive: -8.99%.

On to `CCOC(=O)N1CCC(Nc2ccc(F)cc2)CC1`, for which the activation is inactive: -4.33%.

On to `O=C(NCC1(N2CCCCC2)CCCCC1)c1ccc(F)cc1`, for which the activation was inactive: -0.76%.

Take `CCCCn1nnnc1C(c1cc2ccccc2o1)N1CCC(n2c(=O)[nH]c3ccccc32)CC1` (stereo not drawn): the activation is inactive: -5.36%.

Take `O=P1(N(CCCl)CCCl)SCCCS1`: the activation is inactive: 2.72%.

On to `CCCCOc1ccc(C(=O)NCC2(N3CCOCC3)CCCCC2)cc1`, for which the activation is inactive: -2.02%.
